Test [1] has as its target Multidrug resistance-associated protein 1 (Homo sapiens, UniProt P33527). The test is described as follows: Inhibitory activity against human transporter MRP1 (Multidrug resistance associated protein 1) expressed in COR.L23/R cell line. A digest of the protocol:
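Tritiated daunomycin (0.3 μCi/mL) accumulation in COR.L23/R cells (MRP-expressing human NSCLC MDR subline), seeded 48 h before the assay. Compounds were serially diluted from 100 to 0.015 μM and incubated 2 h at 37 °C. Cells were washed and cell-associated radioactivity measured. 100% accumulation was set with 100 μM verapamil. IC50 is the mean of ≥3 experiments.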

By UniProt entry, the sequences of proteins in these tests, tags left out. Where a name states a change or a piece, a line headed by the entry shows the natural chain unless it says otherwise.
UniProt P33527: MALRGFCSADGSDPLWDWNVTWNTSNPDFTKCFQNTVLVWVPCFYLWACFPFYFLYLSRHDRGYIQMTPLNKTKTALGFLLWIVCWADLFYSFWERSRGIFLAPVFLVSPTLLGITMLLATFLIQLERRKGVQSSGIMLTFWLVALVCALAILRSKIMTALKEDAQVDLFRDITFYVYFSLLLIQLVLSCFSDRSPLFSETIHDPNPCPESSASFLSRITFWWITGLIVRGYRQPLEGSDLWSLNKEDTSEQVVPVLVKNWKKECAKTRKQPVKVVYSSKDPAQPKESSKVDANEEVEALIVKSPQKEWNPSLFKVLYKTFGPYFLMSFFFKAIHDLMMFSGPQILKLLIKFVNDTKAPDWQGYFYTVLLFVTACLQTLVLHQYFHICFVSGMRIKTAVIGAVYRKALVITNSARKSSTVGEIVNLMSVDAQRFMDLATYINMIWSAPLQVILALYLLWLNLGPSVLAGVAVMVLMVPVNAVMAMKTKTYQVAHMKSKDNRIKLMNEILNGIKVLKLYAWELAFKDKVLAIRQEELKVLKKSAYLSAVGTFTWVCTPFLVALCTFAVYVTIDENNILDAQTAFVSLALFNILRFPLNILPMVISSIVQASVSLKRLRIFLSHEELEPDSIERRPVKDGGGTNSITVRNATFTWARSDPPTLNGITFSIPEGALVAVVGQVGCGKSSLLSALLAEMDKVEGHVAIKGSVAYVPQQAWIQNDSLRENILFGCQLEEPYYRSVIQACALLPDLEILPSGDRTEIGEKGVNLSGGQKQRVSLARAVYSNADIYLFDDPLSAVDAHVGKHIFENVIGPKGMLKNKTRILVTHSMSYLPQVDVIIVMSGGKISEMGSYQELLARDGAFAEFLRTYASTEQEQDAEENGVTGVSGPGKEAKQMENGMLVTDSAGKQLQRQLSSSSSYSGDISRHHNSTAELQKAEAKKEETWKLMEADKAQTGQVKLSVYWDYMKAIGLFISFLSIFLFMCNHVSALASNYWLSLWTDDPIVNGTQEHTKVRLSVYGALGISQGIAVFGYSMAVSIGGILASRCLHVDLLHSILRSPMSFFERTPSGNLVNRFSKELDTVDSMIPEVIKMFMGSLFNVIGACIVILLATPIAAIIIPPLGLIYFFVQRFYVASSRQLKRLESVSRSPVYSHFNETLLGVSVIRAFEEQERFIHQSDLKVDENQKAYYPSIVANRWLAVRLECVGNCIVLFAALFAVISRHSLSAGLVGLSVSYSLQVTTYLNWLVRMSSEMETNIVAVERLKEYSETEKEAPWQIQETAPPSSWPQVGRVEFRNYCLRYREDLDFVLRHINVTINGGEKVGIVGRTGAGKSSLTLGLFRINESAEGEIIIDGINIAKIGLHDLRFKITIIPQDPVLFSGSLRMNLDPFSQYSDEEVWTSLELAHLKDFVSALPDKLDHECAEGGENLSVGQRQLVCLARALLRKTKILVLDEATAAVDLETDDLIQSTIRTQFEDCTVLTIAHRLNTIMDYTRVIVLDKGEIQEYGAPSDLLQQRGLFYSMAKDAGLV
UniProt P08684, whole entry: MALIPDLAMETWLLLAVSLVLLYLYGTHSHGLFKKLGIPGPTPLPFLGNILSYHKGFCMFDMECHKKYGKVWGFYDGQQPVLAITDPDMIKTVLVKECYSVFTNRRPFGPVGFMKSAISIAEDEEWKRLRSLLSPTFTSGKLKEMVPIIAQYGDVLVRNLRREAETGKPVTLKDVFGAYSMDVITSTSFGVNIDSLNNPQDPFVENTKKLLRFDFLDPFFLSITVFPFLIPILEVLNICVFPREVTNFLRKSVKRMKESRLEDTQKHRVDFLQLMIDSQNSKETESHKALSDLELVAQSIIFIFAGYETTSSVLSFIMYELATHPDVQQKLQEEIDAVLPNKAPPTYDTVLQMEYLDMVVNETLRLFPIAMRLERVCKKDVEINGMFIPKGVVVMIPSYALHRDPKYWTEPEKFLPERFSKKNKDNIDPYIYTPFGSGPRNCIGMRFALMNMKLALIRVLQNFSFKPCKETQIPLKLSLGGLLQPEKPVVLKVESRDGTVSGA

The target in test [2] is Cytochrome P450 3A4 (Homo sapiens, UniProt P08684). The test is described as follows: Inhibitory concentration to inhibit MRP1 in CYP 3A4 assay. In outline: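 Human liver microsomes (0.1 mg/mL) were incubated at 37 °C with testosterone (110 μM) and modulator (0.1–100 μM). NADPH generating system started the reaction; methanol stopped it after 10 min. 6β-Hydroxytestosterone was measured by HPLC-UV at 300 nm. IC50 came from percent control activity versus concentration; mean of ≥3 experiments.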

These results are taken from ChEMBL document CHEMBL1149092, “Studies on pyrrolopyrimidines as selective inhibitors of multidrug-resistance-associated protein in multidrug resistance” (J Med Chem, 2004).

In general, IC50 refers to the concentration that inhibits the measured activity by half. Low values mean greater potency in that assay, high ones weaker potency in that assay.

On to `O=C(Nc1cccnc1)c1c2n(c3c(N4CCN(CCc5ccc(F)c(F)c5)CC4)ncnc13)CCCC2`, for which the figures for the half-maximal inhibitory concentration (IC50) in test [1] and in test [2] were 76 nM and 9730 nM, respectively.

On to `CCNC(=O)c1c2n(c3c(N4CCN(CCc5ccc(F)c(F)c5)CC4)ncnc13)CCCC2`, for which the IC50 was 120 nM in test [1] and above 100000 nM in test [2].
